Test results taken from article PMC4505066, “Insights into the Recruitment of Class IIa Histone Deacetylases (HDACs) to the SMRT/NCoR Transcriptional Repression Complex” (The Journal of Biological Chemistry, 2015).

Protein sequences, listed by entry. Tags and fused reporters are not part of them. Residues count along the entry.
UniProt P56524, 655-1084 limits assumed: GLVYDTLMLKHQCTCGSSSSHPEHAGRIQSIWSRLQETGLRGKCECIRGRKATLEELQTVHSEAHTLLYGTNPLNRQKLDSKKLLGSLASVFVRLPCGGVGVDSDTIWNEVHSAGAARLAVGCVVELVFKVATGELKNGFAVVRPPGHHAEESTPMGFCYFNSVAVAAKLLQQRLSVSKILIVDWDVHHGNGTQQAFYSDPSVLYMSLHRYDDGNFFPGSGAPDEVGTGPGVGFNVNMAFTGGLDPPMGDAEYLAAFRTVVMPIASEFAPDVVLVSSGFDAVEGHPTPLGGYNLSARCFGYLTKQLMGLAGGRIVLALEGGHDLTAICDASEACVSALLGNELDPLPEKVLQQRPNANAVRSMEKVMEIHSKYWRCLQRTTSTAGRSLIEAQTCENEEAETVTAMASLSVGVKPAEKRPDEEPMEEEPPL

Target: T1, HDAC4 catalytic domain (wild type) (Homo sapiens, UniProt P56524)
T1 construct: we purified the recombinant catalytic domains of HDACs 4, 5, 7, and 9; hexa-histidine tag (N, cleaved yes); S-tag (N, cleaved yes); made in house; host or cells: Escherichia coli Rosetta (pET30)
Assay: Fluorescence anisotropy binding of BODIPY-TMR labeled GSI motif peptides to HDAC4
Settings: wild type HDAC4, 2-fold molar excess of inhibitor

CC(/C=C/C(=O)NO)=C\[C@@H](C)C(=O)c1ccc(N(C)C)cc1 [TSA, trichostatin A, reference compound]
maximum polarization of GSI peptide binding in the presence of inhibitor: lower maximum polarization
